{
  "source": "ChEMBL document CHEMBL4152229",
  "about": "“Synthesis and biological evaluation of 2,6-disubstituted-9H-purine, 2,4-disubstitued-thieno[3,2-d]pyrimidine and -7H-pyrrolo[2,3-d]pyrimidine analogues as novel CHK1 inhibitors” (Eur J Med Chem, 2018)",
  "key": {"[1]": {"molecular_target": "T1, Serine/threonine-protein kinase Chk1 (Homo sapiens) (UniProt O14757)", "T1 sequence (whole entry)": "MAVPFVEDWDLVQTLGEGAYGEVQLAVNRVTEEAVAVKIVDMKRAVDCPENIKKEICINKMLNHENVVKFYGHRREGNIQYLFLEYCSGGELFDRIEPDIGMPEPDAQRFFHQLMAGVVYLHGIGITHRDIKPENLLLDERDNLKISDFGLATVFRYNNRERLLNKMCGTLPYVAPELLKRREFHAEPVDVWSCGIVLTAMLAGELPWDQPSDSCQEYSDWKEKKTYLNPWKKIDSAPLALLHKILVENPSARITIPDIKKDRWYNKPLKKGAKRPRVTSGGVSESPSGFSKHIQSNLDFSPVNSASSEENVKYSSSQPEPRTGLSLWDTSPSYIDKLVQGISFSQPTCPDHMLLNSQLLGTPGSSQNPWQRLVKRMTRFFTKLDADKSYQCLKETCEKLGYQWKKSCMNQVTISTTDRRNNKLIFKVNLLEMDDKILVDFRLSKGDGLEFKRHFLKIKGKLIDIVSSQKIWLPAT", "settings": "HT-29, 10 uM"}, "[2]": {"molecular_target": "T1, Serine/threonine-protein kinase Chk1 (Homo sapiens)", "settings": "HT-29, 1 uM"}},
  "data": [
    {"smiles": "Fc1ccc(Nc2nc(N3CCOCC3)c3nc[nH]c3n2)cc1", "values": [
      {"measurement": "RatioGI50", "setting": "[1]", "result": 7},
      {"measurement": "RatioGI50", "setting": "[2]", "result": 1.9}
    ]}
  ]
}
